# Results: PubChem BioAssay AID1509 (The Scripps Research Institute Molecular Screening Center, 2009)
# The chains behind the UniProt entries cited, without tags or fusion partners. Where a name states a change or a piece, a line headed by the entry shows the natural chain unless it says otherwise.
# UniProt O95977: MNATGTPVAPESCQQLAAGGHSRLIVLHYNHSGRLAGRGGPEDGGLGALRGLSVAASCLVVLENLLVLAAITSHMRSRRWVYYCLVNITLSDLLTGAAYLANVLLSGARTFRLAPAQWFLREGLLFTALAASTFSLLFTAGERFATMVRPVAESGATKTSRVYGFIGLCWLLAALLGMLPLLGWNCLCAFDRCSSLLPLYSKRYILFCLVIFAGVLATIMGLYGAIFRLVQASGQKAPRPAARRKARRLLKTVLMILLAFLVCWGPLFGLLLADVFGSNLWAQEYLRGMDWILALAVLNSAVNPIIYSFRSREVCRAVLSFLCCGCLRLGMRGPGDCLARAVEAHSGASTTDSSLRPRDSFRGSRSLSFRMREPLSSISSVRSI
# Several values for one entry are separate records, joined by “and”; a condition that tells them apart may be missing. Identical values can stand only once. Only a part is listed here, and it is no random draw. Activity calls are given as the source filed them. Rule as the data show it: active = activation above about 11%; inactive = the rest.
# Target: Sphingosine 1-phosphate receptor 4 (Homo sapiens) (UniProt O95977)
# Test: S1P4 receptor agonists, primary screen, cell-based (AID 1509);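 also: 0% = DMSO vehicle and 100% = reference agonist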
# Conditions: S1P4-expressing cell line, agonist reporter assay; at 4.98 µM; active compounds read high
row,Structure (SMILES),activation
1,O=[N+]([O-])c1ccc2c(c1)nnn2O,inactive: -0.54%
2,CCOP1(=S)c2c(C)nn(CCC#N)c2N=C(c2ccc(F)cc2)N1C (configuration not stated),inactive: -0.42%
3,Nc1ccccc1[As](=O)(O)c1ccccc1,inactive: 0.08%
4,O=C(O)COc1ccc([As](=O)(O)O)cc1[N+](=O)[O-],inactive: -1.58%
5,CS(=O)(=O)c1cc([N+](=O)[O-])c2no[n+]([O-])c2c1,inactive: -1.81%
6,O=P(Nc1nccs1)(c1ccccc1)c1nc2ccccc2s1 (configuration not stated),inactive: 0.91%
7,O=P(Nc1nccs1)(Oc1ccccc1)Oc1ccccc1,inactive: 1.42%
8,CCOP1(=S)c2c(C)nn(CCC#N)c2N=C(c2ccccc2F)N1C (configuration not stated),inactive: -1.26%
9,CCOP(=O)(Nc1cccc2ccccc12)OCC,inactive: 0.67%
10,COc1cc(C2NCCC3(OCCO3)C2(C)C)cc(OC)c1OC (configuration not stated),inactive: -0.27%
11,CCCOP(=S)(Nc1nc(N)cc(=O)[nH]1)OCCC,inactive: -1.71%
12,Nc1cccc2c([As](=O)(O)O)cccc12,inactive: -0.25%
13,Cc1ccc(NCCc2c([N+](=O)[O-])cc([N+](=O)[O-])cc2[N+](=O)[O-])cc1,inactive: 1.17%
14,O=[As](O)(c1cccc(O)c1)c1cccc(O)c1,inactive: 0.11%
15,Cc1cccc(OCC(=O)OC2CN3CCC2CC3)c1 (configuration not stated),inactive: -0.14%
16,COc1cc(C(=O)NCC2(N3CCOCC3)CCCCC2)cc(Cl)c1OC(C)C,inactive: 0.26%
17,O=[As](O)(O)c1cccnc1,inactive: -0.04%
18,O=C(OC1CN2CCC1CC2)c1ccc(Cl)cc1 (configuration not stated),inactive: 0.37%
19,CC1(CBr)Cn2c(nc3ccccc3c2=O)S1 (configuration not stated),inactive: 0.86%
20,O=[As](O)(c1ccccc1Br)c1ccccc1Br,inactive: 0.45%
21,CC(C)/C=N\N=C(\N)N[N+](=O)[O-],inactive: -1.13%
22,CN(C(=O)Cc1ccc(Cl)c(Cl)c1)[C@@H]1CCCC[C@H]1N1CCCC1,inactive: -0.2%
23,CC(C)(C)C(=O)NC(Sc1ncccn1)C(Cl)(Cl)Cl (configuration not stated),inactive: 0.42%

row,Structure (SMILES),activation
1,Clc1n[nH]nc1-c1nn[nH][15n]1,inactive: 1.21%
2,CCOP(=O)(Nc1ccc(C)cn1)OCC,inactive: -0.17%
3,O=P1(Nc2ccccn2)COc2ccccc2OC1,inactive: -0.61%
4,O=P1(Nc2ccc(Br)cn2)COc2ccccc2OC1,inactive: -1.18%
5,O=[As](O)(c1cccs1)c1cccs1,inactive: -0.13%
6,Cc1ccc(OCC(=O)OC2CN3CCC2CC3)cc1 (configuration not stated),inactive: 0.8%
7,Nc1cccc([As](=O)(O)c2ccccc2)c1,inactive: 0.44%
8,O=P1(Nc2ncccn2)COc2ccccc2OC1,inactive: -0.68%
9,O=C(/C=C/c1ccccc1)OC1CN2CCC1CC2 (configuration not stated),inactive: -0.07%
10,CN(C)C1(CNC(=O)c2ccc(S(C)(=O)=O)cc2)CCCCC1,inactive: -0.32%
11,CC1CCC(C(C)C)C(OP(=O)(Nc2ccccn2)c2ccccc2)C1 (configuration not stated),inactive: 2.56%
12,Cc1nn(-c2ccccc2)c2c1P(=O)(N1CCOCC1)N(C)C(c1ccccc1)=N2 (configuration not stated),inactive: 0.29%
13,O=[N+]([O-])c1ccc(Nc2ccc(Oc3ccc([N+](=O)[O-])cc3[N+](=O)[O-])cc2)c([N+](=O)[O-])c1,inactive: -0.36%
14,O=P(Nc1ccccn1)(c1cccc2ccccc12)c1cccc2ccccc12,inactive: 0.23%
15,Cc1cc(SC(NC=O)C(Cl)(Cl)Cl)ncn1 (configuration not stated),inactive: 2.66%
16,CCOC(=O)Nc1cccc([As](=O)(O)O)c1,inactive: -0.26%
17,Cc1cc(SC(NC(=O)c2ccccc2)C(Cl)(Cl)Cl)nc(C(C)C)n1 (configuration not stated),inactive: 3.88%
18,CCOC(=O)Nc1ccc([As](=O)(O)O)c(O)c1,inactive: 0.5%
19,CCC(C)N(CC(C)C)C(=S)SC(NC(C)=O)C(Cl)(Cl)Cl (configuration not stated),inactive: -0.3%
20,CCOC(=O)c1ccc(NC(=O)C(C)(CCl)SC)cc1 (configuration not stated),inactive: 0.41%
21,O=C(COc1ccccc1)OC1CN2CCC1CC2 (configuration not stated),inactive: 1.92%
22,COP1(=S)c2c(C)nn(CCC#N)c2N=C(c2ccc(F)cc2)N1C (configuration not stated),inactive: 1.03%
23,COc1ccc(N/C(=N/P(=O)(N2CCOCC2)N2CCOCC2)N2CCOCC2)cc1,inactive: -0.93%

row,Structure (SMILES),activation
1,COc1cc(I)ccc1[As](=O)(O)O,inactive: 1.59%
2,COc1ccc2nc(NP(=O)(c3ccccc3)c3ccccc3)sc2c1,inactive: 0.74%
3,Cc1cc(=O)[nH]c(N[N+](=O)[O-])n1,inactive: 1.05%
4,O=C(OC1CN2CCC1CC2)C12CC3CC(CC(C3)C1)C2 (configuration not stated),inactive: -0.22%
5,Cc1c2c(nc3ccccc13)SC(C(Cl)Cl)C2 (configuration not stated),inactive: 1.62%
6,O=[N+]([O-])c1cc([N+](=O)[O-])c(-c2ccn[nH]2)s1,inactive: 1.22%
7,CCN(CC)C(=S)SC(NC=O)C(Cl)(Cl)Cl (configuration not stated),inactive: 1.12%
8,CC(C)NC(=O)NP(=O)(Oc1ccccc1)Oc1ccccc1,inactive: 0.9%
9,CC(C)c1ccc(OP(=O)(Nc2ccccn2)Oc2ccccc2F)cc1 (configuration not stated),inactive: 0.23%
10,ClCCSc1nnc(-c2cccnc2)o1,inactive: -3.4%
11,Cc1ccc2nc3c(c(C)c2c1)CC(C(Cl)Cl)S3 (configuration not stated),inactive: 1.64%
12,Cc1ccc(OP(=O)(Nc2ccc([N+](=O)[O-])cn2)Oc2ccc(C)cc2)cc1,inactive: 0.85%
13,O=[As](O)(c1ccc(O)cc1)c1ccccc1O,inactive: 1.07%
14,C[As](=O)(O)c1cccc(C(=O)O)c1,inactive: -1.48%
15,CCN(N=Nc1nonc1N)c1nonc1N,inactive: 1.48%
16,Nc1cccc2ccc([As](=O)(O)O)cc12,inactive: -0.23%
17,Cc1ccc(NP(=O)(Oc2ccccc2F)Oc2ccccc2F)nc1,inactive: 0.7%
18,CCOP(=O)(Nc1ccccc1)OCC,inactive: -0.42% and inactive: 1.33%
19,Cc1cc(SC(NC(=O)c2ccc(F)cc2)C(Cl)(Cl)Cl)ncn1 (configuration not stated),inactive: 1.17%
20,O=C(O)c1ccccc1[As](=O)(O)O,inactive: 0.51%
21,CC(=O)Nc1ccc([As](=O)(O)O)cc1,inactive: 0.31%
